Values quoted from earlier work in publication PMC3346155 (Drug Design, Development and Therapy, 2012).

Settings: cited from earlier work

For Octreotide [reference compound], the “mean t½” value is given as “approximately 1.7 hours”.
